According to patent US12246026B2, “Ganaxolone for use in treatment of status epilepticus” (Marinus Pharmaceuticals, Inc., priority 2019, dated 2025):

Tested on: benzodiazepine-resistant SE
Assay: Benzodiazepine-resistant SE in experimental animals
Details: block of convulsions, reduction of EEG seizure activity, increased survival

## CC(=O)[C@H]1CC[C@H]2[C@@H]3CC[C@H]4C[C@](C)(O)CC[C@]4(C)[C@H]3CC[C@]12C [Ganaxolone, 3α-hydroxy-3β-methyl-5α-pregnan-20-one]
  effect on benzodiazepine-resistant SE: immediate and prolonged cessation of benzodiazepine-resistant SE
